# Test results as given in PubChem BioAssay (EPA / NIEHS).
# Amino acid sequences for entries named in this document (tags omitted).
# UniProt P25445, whole entry, looked up: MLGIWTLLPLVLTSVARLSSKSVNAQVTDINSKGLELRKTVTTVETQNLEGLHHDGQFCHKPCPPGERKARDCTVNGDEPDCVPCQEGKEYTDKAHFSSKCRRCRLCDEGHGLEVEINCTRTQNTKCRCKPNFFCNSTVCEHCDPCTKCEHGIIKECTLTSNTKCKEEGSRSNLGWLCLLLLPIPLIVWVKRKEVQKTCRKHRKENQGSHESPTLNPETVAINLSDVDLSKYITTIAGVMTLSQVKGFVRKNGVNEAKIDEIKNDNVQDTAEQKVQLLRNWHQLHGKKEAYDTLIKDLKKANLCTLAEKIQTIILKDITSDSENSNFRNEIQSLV
# UniProt P49327, whole entry, looked up: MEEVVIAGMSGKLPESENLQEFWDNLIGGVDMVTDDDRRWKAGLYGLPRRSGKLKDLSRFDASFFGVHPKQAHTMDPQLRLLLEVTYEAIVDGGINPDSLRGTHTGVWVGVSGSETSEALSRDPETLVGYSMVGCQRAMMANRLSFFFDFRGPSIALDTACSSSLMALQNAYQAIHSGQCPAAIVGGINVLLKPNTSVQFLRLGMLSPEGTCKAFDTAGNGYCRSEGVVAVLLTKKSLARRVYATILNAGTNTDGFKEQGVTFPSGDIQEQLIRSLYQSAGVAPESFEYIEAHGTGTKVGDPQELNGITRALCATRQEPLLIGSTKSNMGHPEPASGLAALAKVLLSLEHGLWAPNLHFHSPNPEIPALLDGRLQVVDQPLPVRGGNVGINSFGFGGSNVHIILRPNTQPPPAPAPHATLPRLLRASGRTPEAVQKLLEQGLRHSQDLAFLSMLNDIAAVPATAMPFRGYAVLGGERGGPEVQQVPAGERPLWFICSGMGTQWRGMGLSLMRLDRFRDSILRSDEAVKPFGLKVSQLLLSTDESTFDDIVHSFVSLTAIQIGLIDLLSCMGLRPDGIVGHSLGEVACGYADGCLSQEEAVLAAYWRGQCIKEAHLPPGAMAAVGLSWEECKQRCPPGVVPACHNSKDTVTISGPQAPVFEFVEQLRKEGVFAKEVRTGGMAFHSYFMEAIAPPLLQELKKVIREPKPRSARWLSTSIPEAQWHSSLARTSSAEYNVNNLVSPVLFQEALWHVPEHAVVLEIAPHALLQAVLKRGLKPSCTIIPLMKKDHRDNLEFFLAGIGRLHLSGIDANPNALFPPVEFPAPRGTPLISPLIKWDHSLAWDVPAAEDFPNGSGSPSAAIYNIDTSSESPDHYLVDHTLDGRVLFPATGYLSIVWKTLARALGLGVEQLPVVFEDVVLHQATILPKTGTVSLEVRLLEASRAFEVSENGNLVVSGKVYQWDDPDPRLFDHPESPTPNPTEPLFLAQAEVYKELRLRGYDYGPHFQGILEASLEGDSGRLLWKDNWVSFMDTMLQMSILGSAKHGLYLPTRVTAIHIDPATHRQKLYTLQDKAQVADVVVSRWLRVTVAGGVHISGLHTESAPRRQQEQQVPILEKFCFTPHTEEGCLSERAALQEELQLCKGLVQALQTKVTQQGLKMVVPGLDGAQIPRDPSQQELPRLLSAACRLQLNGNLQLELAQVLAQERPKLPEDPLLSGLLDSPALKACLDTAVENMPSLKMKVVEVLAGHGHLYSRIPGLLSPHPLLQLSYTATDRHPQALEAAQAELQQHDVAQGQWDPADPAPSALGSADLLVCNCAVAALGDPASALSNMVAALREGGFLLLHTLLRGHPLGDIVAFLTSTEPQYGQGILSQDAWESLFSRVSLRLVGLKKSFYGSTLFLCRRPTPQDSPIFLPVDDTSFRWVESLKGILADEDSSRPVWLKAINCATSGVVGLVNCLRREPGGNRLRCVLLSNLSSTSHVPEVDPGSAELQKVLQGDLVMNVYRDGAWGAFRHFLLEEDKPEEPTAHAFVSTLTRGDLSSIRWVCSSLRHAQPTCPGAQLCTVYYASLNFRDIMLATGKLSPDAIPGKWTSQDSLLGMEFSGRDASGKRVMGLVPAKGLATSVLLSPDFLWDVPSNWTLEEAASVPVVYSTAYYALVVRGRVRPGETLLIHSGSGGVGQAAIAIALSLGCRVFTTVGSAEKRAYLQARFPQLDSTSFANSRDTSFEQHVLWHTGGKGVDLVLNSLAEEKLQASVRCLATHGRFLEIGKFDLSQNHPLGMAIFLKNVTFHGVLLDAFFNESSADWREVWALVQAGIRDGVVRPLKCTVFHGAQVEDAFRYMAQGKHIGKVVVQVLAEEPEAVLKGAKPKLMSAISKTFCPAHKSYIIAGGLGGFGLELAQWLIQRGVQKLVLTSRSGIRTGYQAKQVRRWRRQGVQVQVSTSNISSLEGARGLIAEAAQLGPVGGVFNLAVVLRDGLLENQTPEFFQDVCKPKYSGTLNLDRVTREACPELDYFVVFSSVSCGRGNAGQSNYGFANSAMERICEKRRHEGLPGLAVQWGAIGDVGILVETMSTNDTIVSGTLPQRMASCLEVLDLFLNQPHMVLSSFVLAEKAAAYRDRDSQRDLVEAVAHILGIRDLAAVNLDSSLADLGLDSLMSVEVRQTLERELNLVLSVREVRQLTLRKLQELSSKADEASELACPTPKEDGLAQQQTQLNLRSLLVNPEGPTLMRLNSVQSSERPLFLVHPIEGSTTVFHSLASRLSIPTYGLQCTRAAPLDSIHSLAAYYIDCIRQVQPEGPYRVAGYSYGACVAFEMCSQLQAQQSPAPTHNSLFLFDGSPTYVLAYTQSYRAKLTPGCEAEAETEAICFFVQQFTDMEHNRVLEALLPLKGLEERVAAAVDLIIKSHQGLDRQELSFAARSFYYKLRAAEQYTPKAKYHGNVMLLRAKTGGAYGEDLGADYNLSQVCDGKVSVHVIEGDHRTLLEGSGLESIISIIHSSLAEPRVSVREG
# The entries are a selection whose mix differs from that of the whole data set. Calls of active or inactive are those of the source. Rule for the calls: active = hit-call score of the fitted dose curve at least 0.9, where 1 is the maximum; inactive = score below 0.9.
# Experiments:
# [1] = read-out: Tumor necrosis factor receptor superfamily member 6 (Homo sapiens) (UniProt P25445); assay: LTEA_HepaRG_FAS: Life Technologies and Expression Analysis (LTEA) Assay for Fas cell surface death receptor (FAS) using HepaRG (AID 2283447); settings: actives raise or lower the signal; mRNA level, 48 h
# Procedure: (§1) LTEA_HepaRG is a cell based, multiplexed-readout assay that uses HepaRG, a human liver cell line, with measurements taken at 48 hours after chemical dosing on a 96-well plate.LTEA_HepaRG_FAS is one of 102 assay component(s) measured in the LTEA HepaRG cell culture assay. It is a marker of Cell proliferation, survival, death.Data from the assay component LTEA_HepaRG_FAS was analyzed into 1 endpoint. This assay endpoint, LTEA_HepaRG_FAS, was analyzed with bidirectional fitting relative to DMSO as the negative control and baseline of activity. Using a type of inducible reporter, measures of mRNA induction for gain or loss-of-signal activity can be used to understand regulation of transcription factor activity. To generalize the intended target to other relatable targets, this assay endpoint is annotated to the cytokine receptor intended target family, where the subfamily is TNF receptor.
# (§2) A total of 1060 chemcials from the ToxCast library were tested in eight-point concentration-response experiments. Cell culture and cytotoxicity assays were conducted at Thermo Fisher Scientific's Custom Services facility (Madison, WI). A single lot of human HepaRG cells (Thermo Fisher Scientific, Frederick, MD) was used for the cell culture experiments. 96-well format collagen type I coated plates of human HepaRG cells were prepared using established methods. Briefly, cryopreserved HepaRG cells were thawed, plated at a density of approximately 100,000 cells/well in HepaRG Thaw, Plate, and General Purpose media (HPRG770, Thermo Fisher Scientific), and incubated for 48 hours. 0.5% DMSO was selected as vehicle control to balance the requisite need of DMSO in HepaRG cultures to maintain differentiation (for example, baseline metabolism, proportions of hepatocytes vs. cholangiocytes), while enabling further hepatic receptor pathway activation (for example, PXR and CAR) in response to chemical exposure. 48 hours after plating, the culture medium was replaced with HepaRG Serum-Free Incudtion Media. Cells were exposed to each test chemical in duplicate and maintained in CO2 incubators for another 48 hours. Chemical plates were thawed to room temperature and 200x concentrations of treatment groups were prepared. 8-point conentration-reponse curves were made with the highest exposure at 100 uM, followed by half-log dilutions, all in 0.5% DMSO. […] Fluidigm's 96.96 Dynamic ArrayTM (Fluidigm, Amsterdam, the Netherlands) technology was used for gene expression analyses by quantitative reverse transcription polymerase chain reaction (qRT-PCR, performed by Quintiles/Expression Analysis, Durham, NC)89. […]
# [2] = read-out: Fatty acid synthase (Homo sapiens) (UniProt P49327); assay: LTEA_HepaRG_FASN: Life Technologies and Expression Analysis (LTEA) Assay for Fatty Acid Synthase (FASN) using HepaRG (AID 2283448); settings: actives raise or lower the signal; mRNA level, 48 h;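 for AC50: differentiated human HepaRG liver cells in serum-free induction medium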
# Outline: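 Cells were plated, cultured 48 h, switched to serum-free induction medium, then dosed in duplicate (max 100 uM, half-log dilutions, 0.5% DMSO) for 48 h. RNA was then isolated and FASN quantified by qRT-PCR.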
# [3] = read-out: Cyclin D2 (CCND2), CCND2 (gene 894); assay: LTEA_HepaRG_CCND2: Life Technologies and Expression Analysis (LTEA) Assay for Cyclin D2 (CCND2) using HepaRG (AID 2283449); settings: actives raise or lower the signal; mRNA level, 48 h;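 note: CCND2 transcript measured by TaqMan qRT-PCR and normalised to three housekeeping genes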
# Outline: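 HepaRG, 48 h dosing, 8-pt half-log curve from 100 uM, 0.5% DMSO; duplicate wells. Readout: CCND2 transcript by microfluidic qRT-PCR, housekeeping-normalised; bidirectional fit vs DMSO baseline.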
# [4] = read-out: Cyclin Dependent Kinase Inhibitor 1A (CDKN1A), CDKN1A (gene 1026); assay: LTEA_HepaRG_CDKN1A: Life Technologies and Expression Analysis (LTEA) Assay for Cyclin Dependent Kinase Inhibitor 1A (CDKN1A) using HepaRG (AID 2283450); settings: actives raise or lower the signal; mRNA level, 48 h
# Procedure: as §1, with “plate.LTEA_HepaRG_CDKN1A” for “plate.LTEA_HepaRG_FAS”, “LTEA_HepaRG_CDKN1A” for “LTEA_HepaRG_FAS”, “LTEA_HepaRG_CDKN1A,” for “LTEA_HepaRG_FAS,”, “cell cycle” for “cytokine receptor”, “Cell proliferation, survival, death.” for “TNF receptor.”
# as §2
# [5] = CEETOX_H295R_OHPROG: CeeTox H295R High-throughput Steroidogenesis Assay for OH-Progesterone (OHPROG) (AID 2283435); settings: actives raise or lower the signal
# Outline: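 Steps: seed H295R cells and adhere overnight; stimulate with 10 uM forskolin for 48 h; replace with chemical-containing medium (0.1% DMSO) for 48 h; extract medium with MTBE; quantify 17alpha-hydroxyprogesterone by reverse-phase C18 HPLC-MS/MS against a 7-point curve.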
# [6] = CEETOX_H295R_ANDR: CeeTox H295R High-throughput Steroidogenesis Assay for Androstenedione (ANDR) (AID 2283436); settings: actives raise or lower the signal;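 note: human H295R adrenal cells exposed for 48 h with androstenedione measured in medium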
# Outline: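 48 h chemical exposure, H295R cells, DMEM/F12 + ITS+ and Nu-Serum. Medium androstenedione: MTBE extraction, C18 reverse-phase HPLC, ESI+ MS/MS. Fit bidirectional vs DMSO; MTT viability in same wells.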
# [7] = CEETOX_H295R_CORTIC: CeeTox H295R High-throughput Steroidogenesis Assay for Corticosterone (CORTIC) (AID 2283437); settings: actives raise or lower the signal;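 note: corticosterone secreted into medium quantified by mass spectrometry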
# Procedure: (§3) CEETOX_H295R is a cell-based, multiplexed-readout assay that uses H295R, a human adrenal gland cell line, with measurements taken at 48 hours after chemical dosing in a 96-well plate.CEETOX_H295R_CORTIC is one of 23 assay component(s) measured or calculated from the CEETOX_H295R assay. It is designed to make measurements of hormone induction, a form of inducible reporter, as detected with absorbance signals by HPLC-MS-MS technology.Data from the assay component CEETOX_H295R_CORTIC was analyzed into 1 assay endpoint. This assay endpoint, CEETOX_H295R_CORTIC, was analyzed with bidirectional fitting relative to DMSO as the negative control and baseline of activity. […]
# (§4) Cell culture and media preparation procedures were conducted in accordance with OECD Test No. 456 guidelines, with minor modifications. […] For steroid quantification, media samples were shipped to OpAns, LLC (Durham, NC) on dry ice, and samples were thawed to room temperature prior to liquid-liquid extraction. […] Steroid hormones were separated by HPLC, eluted using a reverse phase C18 gradient with electrospray positive ionization, followed by quantification by tandem mass spectrometry (MS/MS). Data were acquired on a MassHunter Workstation Acquisition version B03.01 (Agilent Technologies, Inc.) and processed using MassHunter Quantitative Analysis for QQQ. […]
# [8] = CEETOX_H295R_CORTISOL: CeeTox H295R High-throughput Steroidogenesis Assay for Cortisol (AID 2283438); settings: actives raise or lower the signal;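 note: cortisol secreted into medium quantified by LC-MS/MS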
# Procedure: as §3, with “plate.CEETOX_H295R_CORTISOL” for “plate.CEETOX_H295R_CORTIC”, “CEETOX_H295R_CORTISOL” for “CEETOX_H295R_CORTIC”, “CEETOX_H295R_CORTISOL,” for “CEETOX_H295R_CORTIC,”
# as §4
# [9] = CEETOX_H295R_DOC: CeeTox H295R High-throughput Steroidogenesis Assay for DOC (AID 2283439); settings: actives raise or lower the signal
# Outline: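 Steps: seed H295R, adhere overnight; 10 uM forskolin 48 h; replace with chemical medium (0.1% DMSO) 48 h; collect medium, MTBE extraction, HPLC-MS/MS for DOC. Viability then checked by MTT; cytotoxic chemicals diluted until viability ≥70%.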
# [10] = CEETOX_H295R_PROG: CeeTox H295R High-throughput Steroidogenesis Assay for Progesterone (PROG) (AID 2283442); settings: actives raise or lower the signal
# Outline: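 H295R adrenal cells prestimulated 48 h with 10 uM forskolin, then exposed 48 h to test chemical in 0.1% DMSO. Progesterone in medium quantified by HPLC-MS/MS after MTBE extraction; viability checked by MTT in same wells.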
structure (smiles),measurement,setting,value
CN(C(=O)Cc1cccc2occc12)[C@H]1CC[C@@]2(CCCO2)C[C@@H]1N1CCCC1,outcome,[1],inactive
same,outcome,[2],inactive
same,outcome,[3],inactive
same,outcome,[4],inactive
O=C1C2CC=CCC2C(=O)N1SC(Cl)(Cl)C(Cl)Cl (stereo unspecified),outcome,[5],inactive
same,outcome,[6],inactive
same,outcome,[7],inactive
same,outcome,[8],inactive
same,outcome,[9],inactive
same,outcome,[10],inactive
same,AC50,[1],active: 0.187 µM
same,outcome,[2],inactive
same,outcome,[4],inactive
CC(C)OP(=S)(OC(C)C)SCCNS(=O)(=O)c1ccccc1,AC50,[1],active: 85.9 µM
same,AC50,[2],active: 90 µM
same,outcome,[3],inactive
same,outcome,[4],inactive
Cc1cc([N+](=O)[O-])cc([N+](=O)[O-])c1O,AC50,[1],active: 76.2 µM
same,AC50,[2],active: 8.09 µM
same,outcome,[3],inactive
same,AC50,[4],active: 88.4 µM
